Values of other authors in article PMC8739840, “Structural and Molecular Insight into Piperazine and Piperidine Derivatives as Histamine H3 and Sigma-1 Receptor Antagonists with Promising Antinociceptive Properties” (ACS Chemical Neuroscience, 2021).

Biological target: H3R
Conditions: pitolisant; read-out: hH3R Ki; cited from earlier work

In the case of Clc1ccc(CCCOCCCN2CCCCC2)cc1 [PIT, Pitolisant], the Ki is given as 1 to 2.4 nM.
